Measurements from patent US11180452B2, “Methods and compositions for selectively inhibiting pathogenic microbes” (priority 2019, dated 2021).
Converted amounts (≈) assume the structure as drawn. Like-named read-outs stand apart in the source and are kept apart here.

What was measured:
[1] = tested on: pathogens to skin commensals
[2] = tested on: pathogens T. rubrum and S. Aureus over commensal microbes R. mucosa and S. epidermidis; settings: FIGS. 5A-5B
NoSpin HepaRG cells = test: HepaRG cytotoxicity, MTT assay EC50; format: cell-based; settings: Homo sapiens, cytotoxicity EC50, Table 9
Procedure: Additionally, the antimicrobial compounds were analyzed for cytotoxicity. […] We utilized the standard MTT assay (Promega CellTiter 96) and GraphPad Prism 7 software to determine EC50 values for each analogue. Briefly, 20,000 HepG2 cells in 200 μl of the ATCC recommended media were seeded in each well of a 96-well plate with a moisture barrier created in the outermost wells. The cells were allowed to attach overnight at 37° C., and then observed under phase contrast microscopy for proper morphological characteristics. […] Once incubations were complete, the spectrophotometric absorbance of the samples was measured at a wavelength of 595 nm. […] For the HepaRG assay, NoSpin HepaRG™ cells (Lonza, cat #NSHPRG) were thawed and plated with 20,000 cells per well. They were allowed to attach for 4 h (optimal DME profile per Lonza's testing) before dosing following the identical protocol as above.

Candida glabrata = Candida glabrata MIC / MFC; format: cell-based; settings: Nakaseomyces glabratus
Bacillus subtilis = Bacillus subtilis MIC / MBC; format: cell-based; settings: for MIC: Bacillus subtilis
C. albicans = test: Candida albicans MIC / MFC; format: cell-based; settings: C. albicans strain #762
[3] = C. glabrata strain #584 (Table 7)
[4] = Candida glabrata #584 (Table 2)

Row | SMILES | Selectivity Pathogens to commensal [1] | selectivity for pathogenic over commensal microbes on polyester fabric [2] | MIC (Candida glabrata; [3]) [µg/mL] | MIC (Candida glabrata; [4]) [µg/mL] | MIC (C. albicans) [µg/mL] | also measured
1 | Oc1ccc(Sc2c[nH]c3ccccc23)cc1 [Compound 156I, 4-((1H-indol-3-yl)thio)phenol] | >4 | selectively inhibits pathogens T. rubrum over commensal microbes R. mucosa and S. epidermidis | – | – | – | –
2 | Brc1ccc(Sc2c[nH]c3ccccc23)cc1 [Compound 156K, 3-((4-bromophenyl)thio)-1H-indole] | 16−>55.5 | inhibits the pathogens T. rubrum and S. Aureus over commensal microbes R. mucosa and S. epidermidis | – | – | – | –
3 | Cc1[nH]c2ccccc2c1Sc1ccc(Br)cc1 [Compound 172C, 3-((4-bromophenyl)thio)-2-methyl-1H-indole] | – | – | – | – | – | EC50 (NoSpin HepaRG cells): 26.8 µg/mL (≈ 84.2 µM)
4 | Brc1ccc(Sc2c[nH]c3cccc(Br)c23)cc1 [Compound 174D, 4-bromo-3-((4-bromophenyl)thio)-1H-indole] | – | – | 3.13 (≈ 8.17 µM) | 3.13 (≈ 8.17 µM) | 3.13 (≈ 8.17 µM) | MBC (Bacillus subtilis; Bacillus subtilis NRRL: B-571, minimum bactericidal concentration): 3.13 µg/mL (≈ 8.17 µM)
5 | Brc1ccc2[nH]cc(Sc3ccccc3Br)c2c1 [Compound 174I, 5-bromo-3-((2-bromophenyl)thio)-1H-indole] | – | – | 3.13 (≈ 8.17 µM) | 3.13 (≈ 8.17 µM) | 3.13 (≈ 8.17 µM) | MIC (Bacillus subtilis; read-out: Bacillus subtilis MIC, strain B-571 (Table 4)): 3.13 µg/mL (≈ 8.17 µM); MIC (Bacillus subtilis; read-out: Bacillus subtilis MIC, strain B-1985): 3.13 µg/mL (≈ 8.17 µM); MIC (Bacillus subtilis; read-out: Bacillus subtilis MIC, strain B-3665): 3.13 µg/mL (≈ 8.17 µM); MIC (Bacillus subtilis; read-out: Bacillus subtilis MIC, strain B-14322): 3.13 µg/mL (≈ 8.17 µM); MIC (Bacillus subtilis; read-out: Bacillus subtilis MIC, strain B-41090): 3.13 µg/mL (≈ 8.17 µM); MIC (Bacillus subtilis; read-out: Bacillus subtilis MIC, strain B-41581): 3.13 µg/mL (≈ 8.17 µM); MIC (Bacillus subtilis; read-out: Bacillus subtilis MIC, strain BD-594): 3.13 µg/mL (≈ 8.17 µM)
6 | Nc1ccccc1Sc1c[nH]c2ccc(Br)cc12 [Compound 174M, 2-((5-bromo-1H-indol-3-yl)thio)aniline] | 8−>55.5 | – | – | – | – | –
